According to patent publication US11124523B2, “2,6-dioxaspiro [4,5] decane derivatives and preparation method therefor and pharmaceutical applications thereof” (SHANDONG LUYE PHARMACEUTICAL CO., LTD., priority 2017, dated 2021):
Counter-ions that a name gives are not always drawn.

target: human μ-subtype opioid receptor (hMOR) (Homo sapiens (Human), UniProt P35372); assay: MOR cAMP agonist activity test; format: cell-based; details: maximum effect of enkephalin DAMGO was 100%
Experimental: Test 1: MOR cAMP Agonist Activity Test
1.1 Experimental Purpose: To test the cAMP agonist activity of the compounds of the present disclosure on the human μ-subtype opioid receptor (hMOR).
a. Compound samples were dissolved in DMSO to a storage concentration of 10 mM.
b. A series of diluted samples were formulated on a 384-well LDV plate. A total of 11 concentration points were obtained by 3.162-fold gradient dilution.
c. The series of diluted samples were transferred to an experimental plate (Corning-3824) by using an Echo machine, wherein 30 nL was transferred corresponding to each well.
The experiment was performed using a cAMP detection kit from Cisbio (Cisbio #62AM4PEJ).
a. Assay buffer and stimulation buffer (STB) required for the experiment were formulated.
Stimulation Buffer: formulated with the assay buffer, containing 5 μM NKH477 (CAS: 138605-00-2) and 200 μM IBMX (3-isobutyl-1-methylxanthine)
b. […] The number of cells in the well was 10,000 cells/well.
c. The experimental plate was placed in a 37° C. constant-temperature incubator for incubation. The incubation was performed for 40 minutes.
d. A cAMP standard concentration curve was prepared. The first concentration point was at 2848 nM, and a total of sixteen detection concentrations were obtained by 4-fold gradient dilution. There were three replicates for each concentration point.
e. The cAMP detection kit from Cisbio was provided therein with a d2-labeled cAMP reagent (d2 reagent) and an Eu-labeled cAMP antibody reagent (Crypate reagent). The above two reagents were formulated according to the kit instructions, and then added to the sample experimental plate and to the cAMP standard concentration experimental plate, respectively. It was necessary to add 5 μL of the d2 reagent and then 5 μL of the Cryptate reagent to each well.
f. After the experimental plates were left at room temperature for 60 minutes, the experimental plates were read on the Envision.

Row | SMILES | Emax
1 | Fc1ccc([C@]2(CCNCc3cccs3)CCO[C@]3(CCOC3)C2)cc1 [(+)-14] | 80.6%
2 | Fc1ccc([C@]2(CCNCc3scc4c3COC4)CCO[C@]3(CCOC3)C2)cc1 [Hydrochloride Salt of (+)-12] | 83%
3 | Fc1ccc([C@]2(CCNCc3scc4c3CCC4)CCO[C@]3(CCOC3)C2)cc1 [Formate Salt of (+)-4] | 97%
